Chains of the proteins cited; added tags and fusions are not shown. Lines headed by an entry give the natural chain unless they say otherwise; changes in a name come on top.
UniProt P28335: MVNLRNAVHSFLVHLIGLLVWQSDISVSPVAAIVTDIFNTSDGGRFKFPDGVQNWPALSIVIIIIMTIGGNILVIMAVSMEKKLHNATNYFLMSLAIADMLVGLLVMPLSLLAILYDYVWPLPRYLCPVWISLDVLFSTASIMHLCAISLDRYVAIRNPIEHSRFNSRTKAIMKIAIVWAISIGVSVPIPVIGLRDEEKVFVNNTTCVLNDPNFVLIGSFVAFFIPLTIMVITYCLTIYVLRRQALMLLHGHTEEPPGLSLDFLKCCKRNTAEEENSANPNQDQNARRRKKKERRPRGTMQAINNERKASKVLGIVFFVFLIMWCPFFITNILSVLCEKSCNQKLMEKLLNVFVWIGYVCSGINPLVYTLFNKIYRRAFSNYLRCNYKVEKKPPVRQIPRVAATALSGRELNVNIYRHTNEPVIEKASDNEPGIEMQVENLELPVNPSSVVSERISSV

In ChEMBL document CHEMBL4402598, “Design and Synthesis of Bitopic 2-Phenylcyclopropylmethylamine (PCPMA) Derivatives as Selective Dopamine D3 Receptor Ligands” (J Med Chem, 2020):

target: 5-hydroxytryptamine receptor 2C (Homo sapiens, UniProt P28335); experiment: Agonist activity at human 5HT2C receptor stably expressed in HEK293 cells co-expressing Gq assessed as induction of calcium mobilization measured at 1 sec interval for 60 secs by Fluo-4 calcium dye based FLIPR assay relative to 5-HT; type: functional, cell-based

Row | SMILES | Emax [%]
1 | CCCN(CCCCNC(=O)c1ccc2ccccc2c1)C[C@H]1C[C@@H]1c1cccc(Cl)c1Cl.Cl | 30.3
2 | CCCN(CCCCNC(=O)c1cc2ccccc2[nH]1)C[C@H]1C[C@@H]1c1cccc(Cl)c1Cl.Cl | 44.2
3 | CCCN(CCCCNC(=O)c1ccc(-c2ccccn2)cc1)C[C@H]1C[C@@H]1c1cccc(Cl)c1Cl.Cl | 51.9
